Assays:
[1] = system: L-selectin on neutrophils; experiment: Snezna L-selectin shedding assay, isolated neutrophils (FACScan); type: cell-based, human; conditions: for approximate concentration for 100% LOSS of L-selectin from cell surface: neutrophils, 10 min at 37 deg.
[2] = system: L-selectin on lymphocytes; experiment: L-selectin shedding assay, isolated lymphocytes (FACScan); type: cell-based, human; conditions: within 20 min
[3] = system: Mac-1 (CD18/CD11b) on neutrophils; experiment: Cell activation check: cell surface Mac-1 expression on neutrophils; type: cell-based, human; conditions: 100 nM PAO
[4] = Solubility in aqueous media; conditions: at the low concentrations needed for administration
[5] = system: L-selectin on neutrophils in whole blood; experiment: Whole blood measurement of L-selectin shedding
[6] = system: other cell surface molecules known to undergo proteolytic cleavage; experiment: Phenotypic analysis of other cell surface molecules on neutrophils; conditions: 100 nM PAO

Quaternary bromobimane
approximate concentration for 100% LOSS of L-selectin from cell surface [1]: 300 uM-

Mersalyl acid
approximate concentration for 100% LOSS of L-selectin from cell surface [1]: 500 uM-

O=[As]c1ccccc1 (stereo not shown)
concentration required for lymphocytes to shed their L-selectin [2]: 5 µM
Mac-1 upregulation [3]: does not appreciably upregulate Mac-1
induction of L-selectin shedding (in words) [1]: induces L-selectin shedding from neutrophils in a dose dependent manner
approximate concentration for 100% LOSS of L-selectin from cell surface [1]: −1 uM-
concentration at which neutrophils shed most of their L-selectin ([1]; within 10 min): 1 µM
solubility in aqueous media [4]: soluble in most aqueous media
L-selectin shedding from neutrophils ([5]; 1 μM PAO, whole human blood, about 20 min): 50%
L-selectin shedding from neutrophils ([5]; 10 uM PAO, whole blood, within about 20 min, 'should induce'): complete shedding
concentration required to obtain about the same results as 1 uM PAO ([5]; whole blood): 10 µM
shedding of other cell surface molecules known to undergo proteolytic cleavage [6]: does not appreciably upregulate Mac-1 or induce the shedding of other cell surface molecules

O=S(=O)(O)CC1CS[As](c2ccccc2)S1 (stereo not shown)
induction of L-selectin shedding (in words) [1]: shown to induce L-selectin shedding

From patent US6943268B2 (priority 1999, dated 2005)
